Laboratory results reported in ChEMBL document CHEMBL1135999, “Discovery of N-isoxazolyl biphenylsulfonamides as potent dual angiotensin II and endothelin A receptor antagonists” (J Med Chem, 2002).

Target: Type-1 angiotensin II receptor (Homo sapiens, UniProt P30556)
Experiment: Compound was evaluated for its binding affinity towards human Angiotensin II receptor, type 1
In short: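 Human recombinant AT1 receptor membranes in 50 mM Tris-HCl pH 7.4, 10 mM MgCl2, 1 mM EDTA, 0.1% BSA; 0.2 nM [125I]-Sar-Ile-angiotensin II displaced by increasing compound concentrations; nonspecific binding with 10 μM angiotensin II; 0.1% DMSO vehicle; 60 min at 37 °C; bound radioligand separated and gamma-counted; IC50 by curve fitting.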

In the case of `CCCCC1=NC2(CCCC2)C(=O)N1Cc1ccc(-c2ccccc2S(=O)(=O)Nc2onc(C)c2C)c(CN2CCC(C)(C)C2=O)c1` [BMS-248360], the Ki is reported as 10 nM.
